Measured values from US8906908B2 (dated 2014).
Read-outs that look alike come from different tables or passages of the source.

Chains of the proteins cited; added tags and fusions are not shown.
UniProt P23975, whole entry: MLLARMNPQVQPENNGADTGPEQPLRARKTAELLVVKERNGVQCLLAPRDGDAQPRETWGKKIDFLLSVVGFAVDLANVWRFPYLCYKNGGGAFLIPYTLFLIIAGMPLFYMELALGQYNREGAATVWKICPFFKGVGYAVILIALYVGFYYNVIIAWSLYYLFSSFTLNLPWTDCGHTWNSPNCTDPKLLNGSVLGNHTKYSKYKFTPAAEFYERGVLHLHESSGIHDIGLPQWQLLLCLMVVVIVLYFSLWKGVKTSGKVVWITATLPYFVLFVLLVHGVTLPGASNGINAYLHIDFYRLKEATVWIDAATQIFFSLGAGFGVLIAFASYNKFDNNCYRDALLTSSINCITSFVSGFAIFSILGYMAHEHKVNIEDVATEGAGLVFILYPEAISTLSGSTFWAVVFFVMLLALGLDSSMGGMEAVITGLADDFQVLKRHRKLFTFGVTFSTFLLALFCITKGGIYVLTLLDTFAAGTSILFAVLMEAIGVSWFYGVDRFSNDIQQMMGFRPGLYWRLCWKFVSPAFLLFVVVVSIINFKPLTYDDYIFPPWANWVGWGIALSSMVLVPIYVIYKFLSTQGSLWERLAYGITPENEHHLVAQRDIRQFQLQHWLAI
UniProt Q01959, whole entry: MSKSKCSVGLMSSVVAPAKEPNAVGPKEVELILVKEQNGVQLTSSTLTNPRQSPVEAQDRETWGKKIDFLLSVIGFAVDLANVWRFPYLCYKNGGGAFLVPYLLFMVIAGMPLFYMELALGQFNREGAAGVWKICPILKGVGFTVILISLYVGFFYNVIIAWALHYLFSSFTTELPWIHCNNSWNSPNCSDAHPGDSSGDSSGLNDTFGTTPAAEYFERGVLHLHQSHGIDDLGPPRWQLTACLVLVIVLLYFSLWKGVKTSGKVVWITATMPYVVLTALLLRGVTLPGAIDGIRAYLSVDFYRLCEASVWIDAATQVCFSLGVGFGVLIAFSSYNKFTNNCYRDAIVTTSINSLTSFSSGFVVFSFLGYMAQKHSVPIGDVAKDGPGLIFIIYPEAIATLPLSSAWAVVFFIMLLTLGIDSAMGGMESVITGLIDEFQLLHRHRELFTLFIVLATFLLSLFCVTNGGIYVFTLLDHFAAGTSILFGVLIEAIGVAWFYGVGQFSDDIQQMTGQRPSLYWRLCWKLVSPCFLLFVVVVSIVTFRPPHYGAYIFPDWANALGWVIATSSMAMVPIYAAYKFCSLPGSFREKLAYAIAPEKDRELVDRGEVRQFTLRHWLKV
UniProt P31645, whole entry: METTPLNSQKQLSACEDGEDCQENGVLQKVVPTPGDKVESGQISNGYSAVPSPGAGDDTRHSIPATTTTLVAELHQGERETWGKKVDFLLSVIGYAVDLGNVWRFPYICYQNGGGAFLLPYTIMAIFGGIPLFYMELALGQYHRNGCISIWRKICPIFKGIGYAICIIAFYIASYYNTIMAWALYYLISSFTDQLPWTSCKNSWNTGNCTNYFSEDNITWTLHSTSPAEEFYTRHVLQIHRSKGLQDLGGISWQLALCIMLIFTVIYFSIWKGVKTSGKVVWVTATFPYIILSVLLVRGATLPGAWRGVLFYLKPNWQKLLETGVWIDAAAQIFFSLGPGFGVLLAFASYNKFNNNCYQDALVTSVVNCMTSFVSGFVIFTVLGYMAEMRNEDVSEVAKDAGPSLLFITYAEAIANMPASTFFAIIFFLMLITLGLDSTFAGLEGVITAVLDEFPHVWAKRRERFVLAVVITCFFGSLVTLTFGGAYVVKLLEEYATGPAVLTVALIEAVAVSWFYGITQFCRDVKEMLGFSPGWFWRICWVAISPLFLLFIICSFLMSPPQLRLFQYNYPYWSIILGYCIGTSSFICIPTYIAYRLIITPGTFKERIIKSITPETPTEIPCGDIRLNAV

Columns and labels:
[1] = target: NE transporters [h(NET)] (Homo sapiens, UniProt P23975); test: Inhibition of [3H]norepinephrine uptake into HEK293 cells stably expressing hNET
[2] = target: human DA transporters [(h)DAT] (Homo sapiens, UniProt Q01959); test: Inhibition of [3H]dopamine uptake into HEK293 cells stably expressing hDAT
[3] = target: 5HT transporters [(h)SERT] (Homo sapiens, UniProt P31645); test: Inhibition of [3H]serotonin uptake into HEK293 cells stably expressing hSERT

CC(NC(C)(C)C)C(=O)c1cccc(Cl)c1 (racemic) [Compound 2, (±)-2-tert-butylamino-3′-chloropropiophenone, reference compound]
IC50 [1]: 1850 nM

C[C@H]1NC(C)(C)CO[C@]1(O)c1cccc(Cl)c1 [Compound (2R,3R)-4a, (2R,3R)-2-(3-Chlorophenyl)-3,5,5-trimethylmorpholin-2-ol, reference compound]
IC50 ([2]; IC50 DA uptake inhibition): > 10 µM
IC50 ([2]; monoamine uptake inhibition IC50 [3H]DA, mean ± standard error of three independent experiments): > 10 µM
IC50 [3]: > 10 µM

C[C@@H]1NC(C)(C)CO[C@@]1(O)c1cccc(Cl)c1 [Compound (2S,3S)-4a, (2S,3S)-2-(3-Chlorophenyl)-3,5,5-trimethylmorpholin-2-ol, reference compound]
IC50 ([2]; read-out: monoamine uptake inhibition IC50 [3H]DA, mean ± standard error of three independent experiments): 0.63 µM
IC50 [3]: > 10 µM
activity at the SERT / 5HT uptake inhibition, in words [3]: Neither (2R,3R)-4a nor (2S,3S)-4a shows activity for 5HT uptake
